Measured values from US20130344139A1, “METHOD OF REDUCING CONTACT LENS INTOLERANCE WITH NON-DRYING ANTIHISTAMINES” (priority 2005, published 2013).

Tested on: muscarinic receptors (M1-M5)
Test: Muscarinic receptor signaling, statements for M1-M5 together
Details: stimulation with 500 nM acetylcholine

CN1CCC(=C2c3ccccc3CC(=O)c3sccc32)CC1 [ketotifen]
inhibition of muscarinic receptor signaling (in words): inhibited muscarinic receptor signaling in a dose-dependent manner
